From the NIST ThermoML archive (doi:10.1016/j.jct.2013.02.004)
Numbers after ± are expanded uncertainties.

Test: activity coefficient (dimensionless); of the first substance listed, at infinite dilution; xn = mol fraction of the nth substance listed
Conditions: 101 kPa, Liquid, Chromatography, x1 = 0

CCCCOCCCC [dibutyl ether] + CCCCCC[n+]1ccc2ccccc2c1.N#C[S-]
Conditions | activity coefficient
308.15 K | 27.8 ± 1.9
318.15 K | 25.9 ± 1.8
328.15 K | 24.4 ± 1.7
338.15 K | 23.1 ± 1.6
348.15 K | 21.8 ± 1.5
358.15 K | 20.8 ± 1.4
368.15 K | 19.6 ± 1.3
